Antibody variant affinities, Ab-14 light chain, assay 1

Values reported by Engelhart et al. 2022, doi:10.1038/s41597-022-01779-4 (FLAb copy).

All variants were tested on one target, the spike HR2 peptide PDVDLGDISGINAS (SARS-CoV-2).

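The starting antibody came from a phage panning campaign against this peptide. Variants in AAYL50 differ from the parent at up to three CDR positions; double and triple changes were sampled at random. The assay is AlphaSeq: two haploid yeast populations carry antibody and antigen on their surface. Pairs that bind mate more often; barcode pairs of the diploids are counted by sequencing. Read counts were normalised to the haploid input and turned into Kd by a linear fit to BCL2-family pairs of known affinity, for each replicate. Mating was done three times.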

Parent scFv Ab-14: VH joined to VL by a (GGGGS)3 linker. Changes lie in the light chain CDRs alone.
VH: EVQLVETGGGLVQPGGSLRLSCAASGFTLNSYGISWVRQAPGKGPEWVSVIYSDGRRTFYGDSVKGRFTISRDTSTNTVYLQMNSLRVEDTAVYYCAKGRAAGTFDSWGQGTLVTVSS
VL: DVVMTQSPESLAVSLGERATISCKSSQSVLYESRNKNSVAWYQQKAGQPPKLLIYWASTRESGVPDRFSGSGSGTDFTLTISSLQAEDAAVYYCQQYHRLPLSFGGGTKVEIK

Changes read parent residue, position, new residue, counted from the first residue of the VL shown. All variants listed here change S25 of the VL, counted from its first residue. The Kd shown is the geometric mean over detected replicates; a lower Kd is a better binder. "no signal" marks a missing value. The strain was present, yet no cells mated with the target were sequenced in any replicate, which points to weak or no binding.

S25E: 6.7 nM (3 of 3 replicates).
S25D+A57I+Q95M: 410 nM (1 of 3 replicates).
S25N+S28P+N35R: 380 nM (3 of 3 replicates).
S25R+S28P+W56F: 880 nM (2 of 3 replicates).
K24R+S25C+S62A: 2.1 nM (3 of 3 replicates).
S25L: 660 pM (3 of 3 replicates).
S25E+S28Y+Y97M: 930 µM (2 of 3 replicates).
S25Y+L30Y+S38H: 7.8 nM (3 of 3 replicates).
S25L+E32L+E61A: 950 pM (3 of 3 replicates).
S25Q+L30Q: 9.7 nM (3 of 3 replicates).
S25Q+A40G+S58Y: 89 µM (1 of 3 replicates).
S25C+T59F+L100R: 11 µM (1 of 3 replicates).
K24D+S25Q+S26M: 570 nM (2 of 3 replicates).
S25Y+T59F+R60P: 5.1 mM (1 of 3 replicates).
S25M+Y31L+S58V: 8.2 nM (3 of 3 replicates).
S25H+V29W+E61H: 72 nM (3 of 3 replicates).
S25P+N35E+K36M: 22 nM (3 of 3 replicates).
S25C+Q27M+S58Y: 18 nM (3 of 3 replicates).
S25F+S33C+R99S: 79 nM (3 of 3 replicates).
S25W+S28N+Y97D: 180 µM (1 of 3 replicates).
S25H+R34T+R60N: 340 µM (1 of 3 replicates).
S25M+R99L: 2.6 nM (3 of 3 replicates).
S25L+Q96I+R99V: 1.6 µM (2 of 3 replicates).
S25K+N35Q+E61S: 4.0 nM (3 of 3 replicates).
S25Y+E32K+R99G: 51 nM (3 of 3 replicates).
S25H+Q96C+Y97Q: no signal (0 of 3 replicates).
S25G+Q27E+N35Q: no signal (0 of 3 replicates).
S25P+S28F+Y97M: 18 µM (1 of 3 replicates).
S25E+W56F+Q96V: 16 nM (3 of 3 replicates).
S25M+Q27N+E32F: 16 nM (3 of 3 replicates).
S25T+L102H: no signal (0 of 3 replicates).
S25L+N35V+S62Y: no signal (0 of 3 replicates).
S25Y+S28Q+N37Q: 10 nM (3 of 3 replicates).
S25D+S26Q+L102Q: 9.3 nM (3 of 3 replicates).
S25P+H98L+L100V: 3.4 µM (3 of 3 replicates).
S25F+T59K+E61N: 4.5 nM (3 of 3 replicates).
S25A+S28A+Y31I: 14 µM (1 of 3 replicates).
S25P+L102N: 270 nM (3 of 3 replicates).
S25D+S58D+P101C: no signal (0 of 3 replicates).
S25K+S33E+R99L: 250 nM (3 of 3 replicates).
S25A+W56P+Q96G: 6.0 µM (2 of 3 replicates).
K24C+S25G+A40F: 14 nM (3 of 3 replicates).
S25R+S28E+H98S: 3.7 nM (3 of 3 replicates).

A selection of 4 entries from above:

| changes | apparent Kd | seen in |
|---|---|---|
| S25H+Q96C+Y97Q | no signal | 0 of 3 |
| S25Q+A40G+S58Y | 89 µM | 1 of 3 |
| S25Y+T59F+R60P | 5.1 mM | 1 of 3 |
| S25P+H98L+L100V | 3.4 µM | 3 of 3 |

Parent in this assay: reference entry 4.4 nM, copy in this library 48 nM. Background: pairings of library AAYL50 with three empty control strains gave a value in 18% of cases (median 15 µM, 5th percentile 970 nM). Values in that range, when seen in few replicates, are hard to tell from nonspecific mating.